Results reported in ChEMBL document CHEMBL5143545, “Indolylarylsulfones bearing phenylboronic acid and phenylboronate ester functionalities as potent HIV‑1 non-nucleoside reverse transcriptase inhibitors” (Bioorg Med Chem, 2022).

Biological target: Human immunodeficiency virus type 1 reverse transcriptase (Human immunodeficiency virus 1, UniProt Q72547)
Test: Inhibition of HIV1 reverse transcriptase assessed as inhibition of biotin-dUTP incorporation

Cc1cc(C#N)cc(C)c1Oc1nc(Nc2ccc(C#N)cc2)nc(N)c1Br [ETRAVIRINE] was tested, and the IC50 was 695 nM.
